Laboratory results published in US11478457B2, “Castration-resistant prostate cancer” (priority 2015, dated 2022).

By UniProt entry, the sequences of proteins in these tests, tags left out. Where a name states a change or a piece, a line headed by the entry shows the natural chain unless it says otherwise.
UniProt O60701: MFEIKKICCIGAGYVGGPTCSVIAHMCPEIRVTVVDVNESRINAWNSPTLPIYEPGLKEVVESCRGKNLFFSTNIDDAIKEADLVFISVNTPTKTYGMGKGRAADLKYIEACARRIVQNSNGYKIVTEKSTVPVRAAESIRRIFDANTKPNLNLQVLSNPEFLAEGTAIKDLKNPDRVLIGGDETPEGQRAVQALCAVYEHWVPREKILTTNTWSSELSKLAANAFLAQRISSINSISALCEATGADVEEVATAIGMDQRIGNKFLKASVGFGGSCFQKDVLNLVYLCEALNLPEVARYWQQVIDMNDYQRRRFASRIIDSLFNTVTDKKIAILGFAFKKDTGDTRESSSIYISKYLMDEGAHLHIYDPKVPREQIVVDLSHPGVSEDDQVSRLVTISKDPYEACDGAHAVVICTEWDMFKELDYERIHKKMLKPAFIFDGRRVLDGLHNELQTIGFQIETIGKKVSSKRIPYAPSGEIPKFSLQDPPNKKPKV

Target: UDP-glucose dehydrogenase (Homo sapiens, UniProt O60701)
Experiment: High throughput screening for inhibitors of UDP-glucose dehydrogenase (NADH fluorescence)
Format: biochemical
Details: compound plates 20 μL/well of 25 μg/mL compound in 2.5% DMSO; relative to DMSO negative and UDP-xylose positive controls; higher POC = more inhibitory

SMILES | POC (Percent of Controls) [%]
C1CN(c2nonc2-[n+]2nc3nonc3[n-]2)CCO1 | 105
Cc1c2no[n+]([O-])c2c(C)[n+]([O-])[n+]1[O-] | 63
